Consider one substance from PMC10531384.

Chains of the proteins cited; added tags and fusions are not shown. Residues count along the entry.
UniProt P36544, 23-502: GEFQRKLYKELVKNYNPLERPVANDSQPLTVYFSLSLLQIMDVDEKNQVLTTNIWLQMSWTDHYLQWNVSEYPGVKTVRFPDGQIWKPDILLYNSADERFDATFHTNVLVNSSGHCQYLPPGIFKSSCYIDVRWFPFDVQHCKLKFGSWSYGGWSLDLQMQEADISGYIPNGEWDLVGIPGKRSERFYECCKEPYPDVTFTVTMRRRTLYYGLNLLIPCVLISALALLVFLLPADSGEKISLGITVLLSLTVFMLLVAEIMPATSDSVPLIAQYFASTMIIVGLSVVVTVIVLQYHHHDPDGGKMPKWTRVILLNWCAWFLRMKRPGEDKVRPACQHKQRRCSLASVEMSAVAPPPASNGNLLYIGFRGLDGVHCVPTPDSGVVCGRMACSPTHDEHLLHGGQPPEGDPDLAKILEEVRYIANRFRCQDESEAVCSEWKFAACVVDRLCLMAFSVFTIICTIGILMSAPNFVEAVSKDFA

This assay deals with SNAP-α7 nicotinic acetylcholine receptor (UniProt P36544). The experiment in a line: FRET or BRET; TR-FRET on HEK293T cells expressing SNAP-α7nAChR (surface receptor labelled with Lumi4-Tb) and NACHO; 10 nM Aβ42-FAM with varying concentrations of unlabeled Aβ42; Tag-lite medium, 2–4 h at room temperature; non-specific binding with 1 μM unlabeled Aβ42.

“Aβ1–42 human, unlabeled (from UniProt P05067 672-713) (peptide; Terbium cryptate (Lumi4-Tb) on the SNAP tag; other documents disagree on this pair)” registered an IC50 of 1.3 pM.
